Test results published in patent US8481731B2, “Compounds, pharmaceutical composition and methods relating thereto” (Boehringer Ingelheim International GmbH, priority 2009, dated 2013).

Protein sequences, listed by entry. Tags and fused reporters are not part of them. Chains listed by the source or under a name are the forms on record and can include a tag or linker. Residues count along the entry.
UniProt Q8TDV5, 2-335 with tags or gaps S329A/T327A limits assumed: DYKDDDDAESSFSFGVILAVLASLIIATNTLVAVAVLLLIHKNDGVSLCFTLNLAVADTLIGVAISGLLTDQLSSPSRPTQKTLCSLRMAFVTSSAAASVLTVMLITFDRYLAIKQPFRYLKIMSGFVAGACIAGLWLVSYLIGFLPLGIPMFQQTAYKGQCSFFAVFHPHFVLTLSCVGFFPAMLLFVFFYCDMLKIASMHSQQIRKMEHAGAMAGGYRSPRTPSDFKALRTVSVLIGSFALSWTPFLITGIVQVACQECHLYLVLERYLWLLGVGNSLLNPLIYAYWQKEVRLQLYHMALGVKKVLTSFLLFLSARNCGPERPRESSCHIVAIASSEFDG

Target: human GPR119 receptor (Homo sapiens, UniProt Q8TDV5, S329A/T327A)
Assay: cAMP assay (LANCE cAMP-384 Kit), cAMP accumulation in HEK293 cells stably expressing mutant human GPR119 receptor
Conditions: HEK293 cells stably expressing a mutant form of the human GPR119 receptor, 20 min at 37° C.
Experimental: Quantitative detection of cAMP accumulation from cells expressing human GPR119 receptor was achieved using Perkin Elmer's LANCE cAMP-384 Kit (Cat#AD0264) according to the manufacturer's protocol. Briefly, HEK293 cells stably expressing a mutant form of the human GPR119 receptor (Methionine 1 replaced with the amino acid sequence […] , and T327 & S329 changed to alanines) were grown to 50-70% confluency in cell culture media (DMEM, 10% heat inactivated Fetal Bovine Serum, 50 I.U./mL penicillin, 50 μg/mL streptomycin, 10 mM HEPES, 20 μg/mL G418 Sulfate). On the day of the assay, GPR119 stable HEK293 cells were lifted from the tissue culture plate and 1000 cells/well were incubated along with various concentrations of test compounds for 20 min at 37° C. Detection Buffer (50 mM HEPES, 10 mM calcium chloride, 0.35% Triton X-100, 1 mg/mL BSA) containing cAMP-specific antibody was then added to all wells and allowed to equilibrate in the dark for 10 minutes at room temperature. […] After 1 hour, bound europium-labeled cAMP tracer was measured using a Perkin Elmer ViewLux. The quantity of cAMP generated in each well was derived from a standard curve.
For some compounds for which no EC50 value could be determined, the efficacy is provided at a single concentration (10 μM) yielding % stimulation values.

For `CC(C)(C)OC(=O)CN1CCC(Oc2cc(N3CCc4cc(S(C)(=O)=O)ccc43)ncn2)CC1`, the pEC50 was 6.77.

pEC50: −log10 of the molar value.
